{"source": "patent US20220323325A1", "about": "“COMPOSITIONS COMPRISING DISSUBSTITUTE TEREPHTHALATES AND ALSO LIGHT PROECTION FILTER SUBSTANCES, DEODORANT AND/OR ANTIPERSPIRANT ACTIVE INGREDIENTS” (Evonik Operations GmbH, priority 2019, published 2022)", "assay": "Dissolution capacity of UV light protection filters", "format": "physicochemical", "conditions": "22° C., percentage by weight", "text": "To test the dissolution capacity of UV light protection filters, three representative UVA or UVB light protection filters were selected representatively. These are: • Butyl Methoxydibenzoylmethane (BMDM) • Ethylhexyl Triazone (EHT) • Bis-Ethylhexyloxyphenol Methoxyphenyl Triazine (BEMT).\nTo determine the dissolution capacity for these three UV light protection filters, a certain amount (50 g) of one of the compounds according to the invention was initially charged in each case and temperature-controlled at 22° C. A percentage by weight of a UV light protection filter was added and stirred until this amount had fully and homogeneously dissolved. This procedure was repeated until the maximal soluble amount of the UV light protection filter had been exceeded. […] If the maximum concentration had been roughly determined in this manner, a fine determination of the concentration range was repeated around this maximum concentration using smaller weighed amounts of the UV light protection filter."}
{"substance": "C12-15 Alkyl Benzoate", "values": [{"measurement": "dissolution capacity for BEMT (maximal soluble amount)", "setting": "Bis-Ethylhexyloxyphenol Methoxyphenyl Triazine in the compound as solvent", "result": 9, "unit": "%"}, {"measurement": "dissolution capacity for BMDM (maximal soluble amount)", "setting": "Butyl Methoxydibenzoylmethane in the compound as solvent", "result": 13, "unit": "%"}, {"measurement": "dissolution capacity for EHT (maximal soluble amount)", "setting": "Ethylhexyl Triazone in the compound as solvent", "result": 4, "unit": "%"}]}
